Experimental data: patent publication US9803013B2, “Biological materials and uses thereof” (BioInvent International AB, priority 2005, dated 2017)

Key:
DU145 cells = experiment: Apoptosis induction in carcinoma cells (cross-linked IgG, 16-24 hours, Annexin V/PI); format: cell-based, human
Experimental: (§1) The prostate carcinoma cell line PC-3 was grown in Complete Growth Medium (RPMI 1640, supplemented with 10% FCS, 10 mM HEPES, and 2 mM L-Glutamine) to 80% confluency in a 6 well plate. The prostate carcinoma cell line DU145 was grown in MEM with Earl's salts, supplemented with 10% FCS, 1 mM sodium pyruvate, and 1 mM non-essential amino acids and the derivate of a melanoma cell line MDA MB 435 was grown in DMEM supplemented with 10% FCS.
(§2) For apoptosis assays cells were washed in PBS and serially diluted B11 IgG1 (or B1 IgG1, Trastuzumab or negative antibody control for controls) was added to individual wells and binding was allowed during a 1-2 h incubation at 4° C. The cells were washed and Complete Growth Medium was added, containing cross-linking antibody, Fab′2 Goat anti-Human Fab′2, at 10 μg/ml. Cells were incubated in a humidified atmosphere, with 5% CO2 at 37° C., for 16-24 hours. […] The percentage apoptotic cells was determined by the formula: % apoptotic cells=100−% AF488−AV/PI−/−.
(§3) Cells were seeded in 6 well plates with Complete Growth Medium three days before the onset of the experiment. […] Cells were washed in ice-cold PBS, subjected to Annexin V/propidium iodide staining, and analysed for viability/apoptosis as described in example 5 above.

MDA MB 435 cells = experiment: as above; format: cell-based, human; details: MDA MB 435, cross-linked IgG
Experimental: as §1, §2, §3

Trastuzumab IgG1: control antibody in carcinoma apoptosis assays; trastuzumab targets Her-2 [reference compound]
apoptosis induction (DU145 cells): not able to induce apoptosis | apoptosis induction (MDA MB 435 cells): not able to induce apoptosis
